Target: T1, 5-HT1A receptors (Homo sapiens, UniProt P08908)
T1 construct: hippocampal membranes (400 μl; equivalent 1.25 mg wet weight tissue/tube) were incubated with 50 μl of 0.6 nM; tissue Edinburgh Sudden Death Brain Bank; host or cells: post-mortem human hippocampus membranes
Assay: Radioligand ([3H]8-OH-DPAT) binding to 5-HT1A receptors in post-mortem human hippocampus membranes

Protein sequences, listed by entry. Tags and fused reporters are not part of them.
UniProt P08908, whole entry: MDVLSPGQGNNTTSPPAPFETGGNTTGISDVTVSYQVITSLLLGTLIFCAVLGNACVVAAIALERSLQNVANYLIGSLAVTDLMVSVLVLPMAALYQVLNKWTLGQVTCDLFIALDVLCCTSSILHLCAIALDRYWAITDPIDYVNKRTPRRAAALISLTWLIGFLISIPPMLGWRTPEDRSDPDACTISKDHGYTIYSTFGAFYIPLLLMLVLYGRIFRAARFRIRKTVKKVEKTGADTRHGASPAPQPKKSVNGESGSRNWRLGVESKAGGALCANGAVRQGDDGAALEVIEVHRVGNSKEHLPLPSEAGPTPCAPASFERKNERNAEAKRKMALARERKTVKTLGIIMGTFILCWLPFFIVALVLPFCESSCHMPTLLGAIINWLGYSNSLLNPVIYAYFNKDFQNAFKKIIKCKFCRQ

`COc1ccc2[nH]cc(CCN(C)C)c2c1` [5-MeO-DMT] was tested, and the Ki was 1.8 nM.

From patent publication US20240108601A1, “TREATMENT OF MENTAL DISORDERS” (GH Research Ireland Limited, priority 2022, published 2024)
